{"source": "patent US6599548B2", "about": "“Ambient stable beverage” (priority 2000, dated 2003)", "key": {"[1]": {"tested_on": "fungi", "test": "Fungicidal activity of pasteurisation adjuncts at 50° C. versus 30° C. (MIC50)", "format": "cell-based"}, "[2]": {"tested_on": "yeast Saccharomyces cerevisiae X2180-1B", "settings": "RTD tea"}}, "note": "Read-outs that look alike come from different tables or passages of the source."}
{"molecule": "CCCCCCCCCCCC(=O)O", "note": "[Lauric acid]", "values": [{"measurement": "fungicidal activity at 30° C.", "setting": "[1]; 30° C.", "value": "no fungicidal activity"}, {"measurement": "fungicidal activity when heated to 50° C.", "setting": "[1]; 50° C.", "value": "significant fungicidal activity"}, {"measurement": "effect on yeast growth at low temperature", "setting": "[2]; 20° C., adjunct 0-12 ppm, cinnamic acid 0-60 ppm", "value": "little effect"}, {"measurement": "effect on yeast growth at low temperature", "setting": "[2]; FIGS. 23, 24, adjunct alone 0-200 ppm, low temperature", "value": "little effect"}, {"measurement": "prevention of yeast growth by low levels of the adjunct", "setting": "[2]; adjunct 0-12 ppm in combination with cinnamic acid 0-60 ppm", "value": "prevention of yeast growth"}]}
